Results taken from patent publication US7122360.

System: GST-CREB [GST: P08515]

PKA prepared from bovine heart
Km: Km of 17 µM
